These results are taken from patent US20240118265A1, “MATERIALS AND METHODS TO IMPROVE IN VITRO TOXICITY PREDICTIONS” (priority 2022, published 2024).

A short description of data set [1]: OptiSafe Eye Irritation Test (macromolecular/biochemical ocular irritation test), surfactant procedure. The settings on record: main score multiplied by DM distance traveled and correction factor.
A further data set deals with eye. The settings on record: GHS category; cited from earlier work.
The nature of data set [2]: Depth of Migration (DM) test. The class given is physicochemical. Particulars: 1:100 dilution in DM dye solution, 30 μL, 15° platform, after 30-120 seconds; table value.
The next data set deals with isolated chicken eye. Particulars: without DM test; cited from earlier work.
In the next data set the test system is cultured epithelium. Particulars: without DM test; cited from earlier work.
A further data set deals with RhCE tissues. The settings on record: without DM test; cited from earlier work.

Regarding Sodium lauroyl sarcosinate (10%), in data set [1], the “ocular irritancy prediction with the Depth of Migration (DM) test” value is “did not meet criteria”.

Maneb: the “in vivo GHS” value in the data set on eye is recorded as “Cat. 2”. The “DM Distance Traveled” value in data set [2] is 4.5. For the same substance, the “ICE prediction versus in vivo” value in the data set with isolated chicken eye is “false negatives”.

Consider Propasol solvent P, for which the “in vivo GHS” value in the data set with eye is “Cat. 2”. The “Short Time Exposure (STE) prediction versus in vivo” value in the data set on cultured epithelium was “false negatives”. Further, the “DM Distance Traveled” value in data set [2] was found to be 4.5.

In the case of 2-Pseudoionone, in the data set with eye, the “in vivo GHS” value is “Cat. 2”. In data set [2], the “DM Distance Traveled” value came out at 4.5. In the data set with RhCE tissues, the “EpiOcular prediction versus in vivo” value is given as “false negatives”.
